Source: patent US6040149A, “Assay for identifying agents which act on the ceramide-activated protein kinase, kinase suppressor of ras, and methods of using said agents” (priority 1997, dated 2000)

Tested on: Raf-1
Assay: Kinase activity of CAP kinase-treated Raf-1 toward MEK1 in vitro
Type: biochemical, human (recombinant Raf-1 and MEK1)
Protocol: FIG. 18A--Raf-1, phosphorylated by CAP kinase, has enhanced kinase activity toward MEK1.
To investigate whether Raf-1 phosphorylation by CAP kinase leads to Raf-1 activation, the kinase activity of Raf-1 was monitored using MEK1 as substrate (FIG. 18). For these studies, Raf-1 was first phosphorylated by CAP kinase for 30 min using unlabeled ATP, and then MEK1 and [g-^32 P]ATP were added to the reaction mixture.
FIG. 18A--CAP kinase was prepared from TNF-stimulated HL-60 cells (30×10^6 /incubation) as described in FIG. 17. Raf-1, immunoprecipitated with anti-Raf-1 antibody-conjugated Sepharose beads, was phosphorylated for 30 min with a gel slice containing renatured CAP kinase by incubation in Raf-1 reaction buffer without radiolabeled ATP. Control reactions (Raf) received blank gel pieces. The kinase activity of Raf-1 was then measured by phosphorylation of purified recombinant human MEK1 (0.1 mg per reaction) in 50 ml MEK1 reaction buffer [30 mM NaCl, 10 mM MgCl2, 100 mM ATP and 50 mCi [γ-^32 P]ATP. The reaction was terminated at the indicated times by the addition of laemmli buffer and boiled for 5 min. Phosphorylated MEK1 was resolved by 10% SDS-PAGE and autoradiographed. MEK1 autophosphorylation (MEK auto) was performed for 20 min in the absence of Raf-1 or CAP kinase. […]

Raf-1: recombinant human Raf-1, a Ser/Thr kinase
Raf-1 singly expressed in Sf9 cells: substrate for / activation by CAP kinase: neither a substrate for, nor activated by, CAP kinase
